From BindingDB's records for PubMed 1353247 (University of Nebraska, 1992)

By UniProt entry, the sequences of proteins in these tests, tags left out.
UniProt P18089, whole entry: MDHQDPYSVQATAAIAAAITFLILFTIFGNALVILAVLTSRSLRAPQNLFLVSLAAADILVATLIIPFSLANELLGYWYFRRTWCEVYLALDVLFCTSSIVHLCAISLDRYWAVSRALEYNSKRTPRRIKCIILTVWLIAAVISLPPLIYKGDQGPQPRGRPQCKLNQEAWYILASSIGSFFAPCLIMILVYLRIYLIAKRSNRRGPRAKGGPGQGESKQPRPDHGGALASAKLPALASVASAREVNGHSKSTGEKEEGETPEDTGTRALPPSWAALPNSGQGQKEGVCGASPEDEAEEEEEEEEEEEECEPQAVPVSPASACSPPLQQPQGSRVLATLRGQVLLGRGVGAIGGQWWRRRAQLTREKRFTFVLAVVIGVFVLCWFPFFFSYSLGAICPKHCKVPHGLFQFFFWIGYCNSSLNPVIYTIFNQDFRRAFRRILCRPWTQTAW

Tests used:
[1] = molecular target: Alpha-2C adrenergic receptor
[2] = molecular target: Alpha-2B adrenergic receptor (Homo sapiens, UniProt P18089)

SMILES | Ki [1] [nM] | Ki [2] [nM]
Cc1ccc(N(CC2=NCCN2)c2cccc(O)c2)cc1 [SMR000059054] | 29 | –
CN(C)CCCN1c2ccccc2Sc2ccc(Cl)cc21 [[3-(2-Chloro-phenothiazin-10-yl)-propyl]-dimethyl-amine(Chlorpromazine)] | 238 | –
O=C1NCN(c2ccccc2)C12CCN(CC1COc3ccccc3O1)CC2 (stereo not drawn) [8-(2,3-Dihydro-benzo[1,4]dioxin-2-ylmethyl)-1-phenyl-1,3,8-triaza-spiro[4.5]decan-4-one] | – | 0.19
